Protein sequences, listed by entry. Tags and fused reporters are not part of them.
UniProt P08483, whole entry: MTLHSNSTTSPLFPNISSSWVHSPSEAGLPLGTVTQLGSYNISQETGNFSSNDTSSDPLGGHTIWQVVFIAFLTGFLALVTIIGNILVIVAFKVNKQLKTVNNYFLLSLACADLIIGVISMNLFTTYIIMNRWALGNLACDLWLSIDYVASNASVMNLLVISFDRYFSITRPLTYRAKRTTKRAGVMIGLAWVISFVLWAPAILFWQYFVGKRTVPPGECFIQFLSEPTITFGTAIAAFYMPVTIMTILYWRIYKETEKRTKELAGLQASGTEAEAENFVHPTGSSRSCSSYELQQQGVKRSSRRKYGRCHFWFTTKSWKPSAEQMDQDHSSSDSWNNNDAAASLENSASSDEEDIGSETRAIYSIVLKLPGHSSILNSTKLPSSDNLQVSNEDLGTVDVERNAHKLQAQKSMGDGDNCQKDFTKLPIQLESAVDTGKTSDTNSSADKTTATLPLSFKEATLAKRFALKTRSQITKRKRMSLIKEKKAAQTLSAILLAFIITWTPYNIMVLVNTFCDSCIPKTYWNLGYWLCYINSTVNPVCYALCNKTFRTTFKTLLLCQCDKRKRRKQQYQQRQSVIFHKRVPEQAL

According to ChEMBL document CHEMBL1143535 (Bioorg Med Chem Lett, 2005):

What follows are compounds tested against Muscarinic acetylcholine receptor M3 (Rattus norvegicus, UniProt P08483) (assay: Affinity for rat Muscarinic acetylcholine receptor M3).
Compound `Cc1ccc(OCc2ccccc2)c(C(CCN2C[C@@]3(C)C[C@@]3(C)C2)c2ccccc2)c1` (stereo not given in full) has a Ki of over 10000 nM. `O=C(NCC#CCN1CC2CC2C1)C(O)(c1ccccc1)c1ccccc1` (stereo not given) was tested, and the Ki was 291 nM. In the case of `Cc1ccc(O)c(C(CCN2C[C@H]3C[C@H]3C2C)c2ccccc2)c1` (stereo not given in full), the Ki is reported as 79 nM and 25 nM. Work on `Cc1ccc(OCc2ccccc2)c(C(CCN2C[C@H]3C[C@H]3C2)c2ccccc2)c1` (stereo not given in full) yielded a Ki of over 1000 nM. `Cc1ccc(O)c(C(CCN2C[C@@]3(C)C[C@@]3(C)C2)c2ccccc2)c1` (stereo not given in full) showed a Ki of over 1000 nM. With `Cc1ccc(O)c(C(CCN2C[C@H]3C[C@@]3(C)C2)c2ccccc2)c1` (stereo not given in full) the Ki was 118 nM. In the case of `O=C(NCC#CCN1CC2CC2C1)C(O)(c1ccc(F)cc1)c1ccc(F)cc1` (stereo not given), the Ki is reported as 366 nM. Compound `O=C(NCC#CCN1CC2CC2C1)C(O)(c1ccccc1)C1CCCCC1` (stereo not given) has a Ki of 2610 nM. `Cc1ccc(O)c(C(CCN2CC3C[C@@H]3C2)c2ccccc2)c1` (single isomer, unassigned) showed a Ki of 50 nM. In the case of `Cc1ccc(OCc2ccccc2)c(C(CCN2C[C@H]3C[C@H]3C2C)c2ccccc2)c1` (stereo not given in full), the Ki is reported as over 1000 nM.

“And” between values parts separate entries of the source, which are not always exact repeats. Equal values may be shown once.
